Data as given in ChEMBL document CHEMBL1137014, “Structure-activity study of new inhibitors of human betaine-homocysteine S-methyltransferase” (J Med Chem, 2009).

Key:
[1] = biological target: T1, Betaine--homocysteine S-methyltransferase 1 (Homo sapiens, UniProt Q93088); assay: Inhibition of human recombinant BHMT expressed in Escherichia coli using 2 mM betaine and 1 mM DL-homocysteine as substrate
T1 sequence (Q93088 whole entry): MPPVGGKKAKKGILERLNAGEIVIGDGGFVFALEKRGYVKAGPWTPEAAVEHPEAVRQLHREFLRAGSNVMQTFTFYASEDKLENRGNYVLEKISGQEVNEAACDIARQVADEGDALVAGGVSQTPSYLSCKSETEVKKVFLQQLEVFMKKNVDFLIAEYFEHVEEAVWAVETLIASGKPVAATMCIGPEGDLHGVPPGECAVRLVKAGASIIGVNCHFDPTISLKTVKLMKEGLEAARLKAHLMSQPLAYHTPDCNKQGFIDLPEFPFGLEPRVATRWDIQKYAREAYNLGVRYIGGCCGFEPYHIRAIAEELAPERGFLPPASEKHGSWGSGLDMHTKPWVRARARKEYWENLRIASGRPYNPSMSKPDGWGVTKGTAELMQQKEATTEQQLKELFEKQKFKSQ
How it was run: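 Same radiometric Dowex assay as for percent inhibition (0.2 μM enzyme, pH 7.5 K-phosphate, 37 °C, 30 min), but with 1 mM DL-homocysteine and 2 mM 14C-betaine. Ten inhibitor concentrations in duplicate per curve, IC50 by nonlinear regression. Three independent experiments, mean ± SEM.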

[2] = biological target: T1, Betaine--homocysteine S-methyltransferase 1; assay: Binding affinity to human recombinant BHMT expressed in Escherichia coli using variable levels of betaine substrate by Dixon plot; details: read-out: Ki(app)
[3] = biological target: T1, Betaine--homocysteine S-methyltransferase 1; assay: Binding affinity to human recombinant BHMT expressed in Escherichia coli by intrinsic tryptophan fluorescence studies

- IC50 [1]: 138 nM
- Ki [2]: 12 nM
- Kd [3]: 280 nM
Compound: NC(CCSCCCCC(=O)O)C(=O)O (stereo not drawn)
